The values below come from patent US7001887B2, “Peptide derivatives” (priority 2001, dated 2006).

The chains behind the UniProt entries cited, without tags or fusion partners. Residues count along the entry.
UniProt P08709, 61-212 limits assumed: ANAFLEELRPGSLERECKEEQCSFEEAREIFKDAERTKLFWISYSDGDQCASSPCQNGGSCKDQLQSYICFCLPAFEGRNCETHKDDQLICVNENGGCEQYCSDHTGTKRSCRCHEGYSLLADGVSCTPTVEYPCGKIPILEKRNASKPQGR
UniProt P08709, 213-466 limits assumed: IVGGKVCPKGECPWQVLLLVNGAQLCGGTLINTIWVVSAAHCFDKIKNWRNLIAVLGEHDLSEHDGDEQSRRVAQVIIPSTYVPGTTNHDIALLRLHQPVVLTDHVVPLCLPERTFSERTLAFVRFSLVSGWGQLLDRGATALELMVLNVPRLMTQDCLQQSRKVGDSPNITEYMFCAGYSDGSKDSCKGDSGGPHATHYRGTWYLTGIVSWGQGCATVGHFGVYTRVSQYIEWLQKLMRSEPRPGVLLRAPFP

The assay has as its target human factor VIIa (Homo sapiens, UniProt P08709). The assay can be described thus: biochemical. As for the experimental part: 1. Assay for FVIIa-inhibiting Activity
A 10 vol % DMSO solution of a test compound (20 μL) was mixed with 40 μL Thromborel®S (50 mg/mL, Dade Behring, GTS-200A), 20 μL Spectrozyme®fVIIa (5 mmol/L, American Diagnostica Inc., #217L), 20 μL Tris buffer (500 mmol/L Tris/HCl, pH 7.5, 1500 mmol/L NaCl, 50 mmol/L CaCl2) and 80 μL distilled water, followed by stirring. […] The initial reaction velocity was set to 100% in the case of adding 10 vol % DMSO alone, instead of a test compound. […] This concentration was defined as an IC50 value.

The term IC50 denotes the point on the concentration scale where inhibition reaches its midpoint. A low value points to inhibition by little substance. Turning to `CCS(=O)(=O)N[C@H](Cc1ccc(-c2ccccc2)cc1)C(=O)N[C@@H](CCC(N)=O)C(=O)NCc1ccc(C(=N)N)cc1` [Example 65], the IC50 is 93 nM. This lies in the double-digit nanomolar range.
